Measured values reported in paper PMC8795149, “Characterization of a novel non-steroidal glucocorticoid receptor agonist optimized for topical treatment” (Scientific Reports, 2022).

By UniProt entry, the sequences of proteins in these tests, tags left out. Residues count along the entry.
UniProt P08235, whole entry: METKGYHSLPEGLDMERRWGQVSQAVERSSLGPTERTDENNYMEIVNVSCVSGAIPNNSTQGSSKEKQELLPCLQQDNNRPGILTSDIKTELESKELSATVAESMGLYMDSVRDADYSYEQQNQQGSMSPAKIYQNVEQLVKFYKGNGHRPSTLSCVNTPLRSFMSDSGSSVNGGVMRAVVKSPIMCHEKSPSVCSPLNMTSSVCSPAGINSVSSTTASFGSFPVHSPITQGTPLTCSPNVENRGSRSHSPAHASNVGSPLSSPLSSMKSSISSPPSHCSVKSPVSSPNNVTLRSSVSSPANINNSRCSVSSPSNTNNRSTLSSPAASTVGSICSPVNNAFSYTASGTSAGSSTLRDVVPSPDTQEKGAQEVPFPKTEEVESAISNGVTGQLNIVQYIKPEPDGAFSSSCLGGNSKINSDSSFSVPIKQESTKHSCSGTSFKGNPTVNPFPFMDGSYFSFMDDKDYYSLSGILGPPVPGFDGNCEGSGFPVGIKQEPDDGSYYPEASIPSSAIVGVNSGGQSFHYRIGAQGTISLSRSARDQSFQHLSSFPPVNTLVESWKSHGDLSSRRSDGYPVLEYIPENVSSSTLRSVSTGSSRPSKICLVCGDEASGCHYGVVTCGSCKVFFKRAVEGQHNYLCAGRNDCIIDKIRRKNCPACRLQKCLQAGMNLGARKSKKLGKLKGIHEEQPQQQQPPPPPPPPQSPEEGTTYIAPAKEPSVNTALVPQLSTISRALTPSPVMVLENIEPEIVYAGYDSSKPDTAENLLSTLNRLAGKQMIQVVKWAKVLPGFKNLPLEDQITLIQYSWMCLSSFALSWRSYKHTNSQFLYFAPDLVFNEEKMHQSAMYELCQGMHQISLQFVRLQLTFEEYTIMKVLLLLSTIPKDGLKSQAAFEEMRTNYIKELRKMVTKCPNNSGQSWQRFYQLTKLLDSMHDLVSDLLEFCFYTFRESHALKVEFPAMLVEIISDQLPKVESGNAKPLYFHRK
UniProt P08235, 726-964 limits assumed: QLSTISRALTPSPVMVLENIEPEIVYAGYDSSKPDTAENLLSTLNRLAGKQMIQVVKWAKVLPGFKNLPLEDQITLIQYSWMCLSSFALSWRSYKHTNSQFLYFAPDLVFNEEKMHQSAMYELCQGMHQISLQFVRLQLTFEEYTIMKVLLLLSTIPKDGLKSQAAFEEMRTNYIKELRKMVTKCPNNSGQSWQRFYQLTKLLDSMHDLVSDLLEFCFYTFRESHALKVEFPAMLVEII
UniProt P04150, whole entry: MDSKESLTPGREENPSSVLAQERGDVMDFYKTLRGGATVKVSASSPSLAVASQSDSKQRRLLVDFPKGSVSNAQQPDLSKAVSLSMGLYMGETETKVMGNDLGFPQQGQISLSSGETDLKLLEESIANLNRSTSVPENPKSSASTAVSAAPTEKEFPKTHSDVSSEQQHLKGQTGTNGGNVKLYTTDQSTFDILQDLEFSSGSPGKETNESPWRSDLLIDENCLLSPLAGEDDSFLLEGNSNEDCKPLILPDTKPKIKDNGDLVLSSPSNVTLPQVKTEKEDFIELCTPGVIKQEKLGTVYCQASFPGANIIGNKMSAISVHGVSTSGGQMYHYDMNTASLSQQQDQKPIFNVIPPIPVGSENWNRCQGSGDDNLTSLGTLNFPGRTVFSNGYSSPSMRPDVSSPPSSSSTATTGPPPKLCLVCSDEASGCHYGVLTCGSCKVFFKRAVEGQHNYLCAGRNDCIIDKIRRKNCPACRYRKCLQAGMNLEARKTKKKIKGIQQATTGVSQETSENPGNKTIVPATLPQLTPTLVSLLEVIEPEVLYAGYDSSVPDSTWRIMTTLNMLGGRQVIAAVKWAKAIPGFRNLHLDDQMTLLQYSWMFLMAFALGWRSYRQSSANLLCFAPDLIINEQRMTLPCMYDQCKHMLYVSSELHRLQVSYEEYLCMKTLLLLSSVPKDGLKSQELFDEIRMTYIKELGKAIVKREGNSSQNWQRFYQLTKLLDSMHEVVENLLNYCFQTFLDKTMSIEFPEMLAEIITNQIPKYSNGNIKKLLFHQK

Legend:
[1] = system: LPS-induced TNF-alpha release in PBMCs; test: TNF-alpha inhibition assay, pig PBMCs; conditions: tested form: Na salt
Protocol: (§1) PMBCs were isolated from human buffy coats or animal whole blood (EDTA-treated). Buffy coats from anonymized healthy adult blood donors were obtained from the Blood Bank of the National University Hospital Copenhagen in accordance with national legislation. Whole blood from mice (obtained from Charles River) was sampled at the animal facility at LEO Pharma and whole blood from pigs was sourced from ScanTox. Test compounds and PBMCs were incubated with 1 µg/ml LPS (Sigma) overnight at 37 °C in HEPES and Glutamax-containing RPMI medium supplemented with either 0.5% human serum albumin (human PBMCs) or 10% fetal bovine serum (mouse and pig PBMCs) and penicillin/streptomycin. TNF-alpha was measured using AlphaLISA (Perkin Elmer).
(§2) IC50 of test compounds was determined by 10-point titrations in duplicates. IC50 values and other parameters were calculated by sigmoidal curve fitting in Assay Explorer.

[2] = biological target: human Mineralocorticoid Receptor (Homo sapiens, UniProt P08235); test: MR antagonist assay, MR reporter assay; conditions: tested form: Na salt
[3] = system: LPS-induced TNF-alpha release in PBMCs; test: TNF-alpha inhibition assay, human PBMCs; conditions: tested form: Na salt
Protocol: as §1, §2

[4] = system: PPAR-alpha, LXR-beta, RAR-alpha, RXR-alpha, ER-alpha, PR, AR, ER-beta and TR; test: Selectivity screening on nuclear receptors, radioligand binding (CEREP); conditions: 10µM; greater than 25% displacement considered significant; tested form: Na salt
Protocol: Selectivity screening on nuclear receptors – Studies were performed at CEREP using their proprietary assays for human PPARalpha, LXRbeta, RARalpha, RXRalpha, ERalpha, ERbeta, progesterone receptor, androgen receptor and thyroid hormone receptor employing specific, radiolabeled agonist ligands. Interactions leading to greater than 25% displacement of the radiolabeled agonist ligand were considered significant. Concentrations of LEO 134310 and LEO 134998 were 10µM.

[5] = system: 8 ion channels, 40 kinases, 2 phosphatases, up to 163 G-protein coupled receptors; test: Off-target panels (Eurofins IonChannelProfiler, KinaseProfiler, GPCRProfiler); conditions: 10 µM; tested form: Na salt
[6] = Compound concentration in dermis, human skin explants; conditions: after dosing LEO 134310, human skin explants, 24 h; tested form: Na salt
Protocol: NativeSkin models (NS002) were purchased from Genoskin, France. Human skin samples from abdominal reduction surgery were obtained by Genoskin from donors upon written informed consent. Full ethical approval for the study protocol was obtained from the French ethical research committee (Comité de Protection des Personnes), and authorization was given by the French Ministry of Research. The study was conducted according to the Declaration of Helsinki. 8 mm punch biopsies were excised and embedded in a fibrin-based matrix in transwells and a silicone ring was firmly attached to the surface covering the outer edge of the skin biopsy to prevent lateral diffusion of topically applied formulations. […]
The concentrations of the compounds in dermis were determined from skin biopsies from the human skin explants. […] After homogenization, the samples were diluted, centrifuged and precipitated with acetonitrile containing internal standard (IS), and the compounds were thereafter quantified by means of liquid chromatography-tandem mass spectrometry (LC-MS/MS) using an AB Sciex 5500 or 6500 QTRAP. Calibration curves were prepared by spiking the analytes in blank homogenate, and a generic IS were used in quantification. The dermis micro molar concentrations were calculated assuming 1 gram of skin tissue equal to 1 mL.

[7] = biological target: mineralocorticoid receptor (MR) (Homo sapiens, UniProt P08235); test: MR agonist assay, MR-luciferase reporter cells; conditions: 24 h incubation; 'in contrast' = unlike LEO 134310, which gave no significant activation; tested form: Na salt
[8] = system: LPS-induced TNF-alpha release in PBMCs; test: TNF-alpha inhibition assay, mouse PBMCs; conditions: tested form: Na salt
Protocol: as §1, §2

GR [9] = biological target: T1, GR (Homo sapiens, UniProt P04150); test: Transactivation assay, MMTV promoter luciferase in HeLa cells; conditions: read-out: Transactivation EC50, 20 h, geometric mean, tested form: Na salt
GR [10] = biological target: T1, GR; test: Transrepression assay, PMA-induced MMP1 promoter luciferase in HeLa cells; conditions: tested form: Na salt

**Q.** Which “Inhibition of LPS-induced TNF-alpha release Emax” value (from here on “Inhibition”) [1] does the source give for `C[C@H](NC(=O)[C@H]1CCCO1)[C@H](Oc1ccc(C(=O)O[C@H]2CCCN(C(=O)[C@@H](CO)CC(=O)O)C2)cc1)c1ccc(C2CC2)cc1` here?
**A.** 93%

**Q.** What about the “Antagonist activity on MR” value [2] of the same molecule?
**A.** no antagonist activity on MR

**Q.** What about the “Inhibition” value [3] of the same molecule?
**A.** 75%

**Q.** And the “Interaction with nine nuclear hormone receptors in specific binding assays” value [4]?
**A.** no significant interaction

**Q.** And the “Off-target activity in ion channel, kinase, phosphatase and GPCR panels” value [5]?
**A.** no off-target activity was identified

**Q.** What about the “Dermis concentrations of metabolite relative to parent” value [6] of the same molecule?
**A.** comparable to parent

**Q.** And the “Activation of MR (luciferase activity)” value [7]?
**A.** did not activate MR either

**Q.** What about the “Inhibition” value [8] of the same molecule?
**A.** 100%

**Q.** And the EC50 (GR [9])?
**A.** 560 nM

**Q.** What about the “Transrepression Emax” value (GR [10]; PMA-induced MMP1 promoter, HeLa cells) of the same molecule?
**A.** 98%

**Q.** What about the “Loss of potency in the transrepression assay compared to LEO 134310” value (GR [10]) of the same molecule?
**A.** about 40 fold
